IC50 data for 27 molecules are collected here from patent US9394282B2, “Pyrazole carboxamides as Janus kinase inhibitors” (Merck Sharp & Dohme Corp., priority 2011, dated 2016).

Amino acid sequences for entries named in this document (tags omitted). Residues count along the entry.
UniProt O60674, 849-1124: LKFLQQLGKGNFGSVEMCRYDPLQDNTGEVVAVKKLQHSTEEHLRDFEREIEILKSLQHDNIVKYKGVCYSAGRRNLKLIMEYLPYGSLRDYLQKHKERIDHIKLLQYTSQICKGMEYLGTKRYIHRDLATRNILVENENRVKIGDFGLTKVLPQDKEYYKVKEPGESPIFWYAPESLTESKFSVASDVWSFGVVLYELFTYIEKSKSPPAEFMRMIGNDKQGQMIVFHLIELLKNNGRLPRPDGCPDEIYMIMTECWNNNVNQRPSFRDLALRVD
UniProt P23458, 875-1153: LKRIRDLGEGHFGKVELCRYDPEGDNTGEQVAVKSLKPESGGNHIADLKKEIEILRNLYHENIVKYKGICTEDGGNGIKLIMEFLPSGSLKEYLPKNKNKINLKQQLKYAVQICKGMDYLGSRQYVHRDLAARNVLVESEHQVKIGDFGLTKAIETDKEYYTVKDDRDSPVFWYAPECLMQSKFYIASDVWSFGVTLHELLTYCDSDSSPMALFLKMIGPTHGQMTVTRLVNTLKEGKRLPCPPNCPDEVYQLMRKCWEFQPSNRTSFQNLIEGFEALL

One may read the IC50 as the midpoint of a concentration-inhibition curve.

The target of the first experiment is JAK2 (Homo sapiens (Human), UniProt O60674). The experiment in a line: Jak biochemical HTRF assay, JAK2. The note with it: recombinant purified GST-tagged catalytic domain; HTRF format; [ATP] 8.5 μM. An excerpt:
(§1) Jak Biochemical HTRF Assay Protocol
(§2) Subsequent reagent additions employed an Agilent Bravo.
With `N#C[C@@H]1CN(Cc2cnccn2)CC[C@H]1n1cc(C(N)=O)c(Nc2ccc(F)cc2)n1` (racemic) [Example 6-23, 1-[(3R,4R and 3S,4S)-3-cyano-1-(pyrazin-2-ylmethyl)piperidin-4-yl]-3-[(4-fluorophenyl)amino]-1H-pyrazole-4-carboxamide], the half-inhibitory concentration (IC50) worked out at 75 nM. Same read-out and setting: the result for `N#C[C@@H]1CCOC[C@H]1n1cc(C(N)=O)c(Nc2ccc([C@@H](O)C(F)(F)F)cc2)n1` (single isomer, unassigned) [Example 9-6, 1-[(3S,4R or 3R,4S)-4-cyanotetrahydro-2H-pyran-3-yl]-3-({4-[(1R or 1S)-2,2,2-trifluoro-1-hydroxyethyl]phenyl}amino)-1H-pyrazole-4-carboxamide] reads 21 nM.

The target of another experiment is JAK1 (Homo sapiens (Human), UniProt P23458). The experiment can be described thus: Jak biochemical HTRF assay, JAK1. Particulars: recombinant purified GST-tagged catalytic domain; HTRF format; [ATP] 31.8 μM.
Description: as §1, §2
In the case of `CN(C)CCOC(=O)N1CC[C@@H](n2cc(C(N)=O)c(Nc3ccc(F)cc3)n2)[C@H](C#N)C1` (racemic) [Example 5-22, 2-(dimethylamino)ethyl (3R,4R and 3S,4S)-4-{4-carbamoyl-3-[(4-fluorophenyl)amino]-1H-pyrazol-1-yl}-3-cyanopiperidine-1-carboxylate], the half-inhibitory concentration (IC50) was 25 nM. Still for that read-out and setting: as for `CN1CCN(CCOC(=O)N2CC[C@@H](n3cc(C(N)=O)c(Nc4ccc(F)cc4)n3)[C@H](C#N)C2)CC1` (racemic) [Example 5-24, 2-(4-methylpiperazin-1-yl)ethyl (3R,4R and 3S,4S)-4-{4-carbamoyl-3-[(4-fluorophenyl)amino]-1H-pyrazol-1-yl}-3-cyanopiperidine-1-carboxylate], the figure is 38 nM. As for `N#C[C@@H]1CN(C(=O)OCC2CC2)CC[C@H]1n1cc(C(N)=O)c(Nc2ccc(F)cc2)n1` (racemic) [Example 5-30, cyclopropylmethyl (3R,4R and 3S,4S)-4-{4-carbamoyl-3-[(4-fluorophenyl)amino]-1H-pyrazol-1-yl}-3-cyanopiperidine-1-carboxylate], the IC50 worked out at 12 nM. Still for that read-out and setting: the result for `COCCCOC(=O)N1CC[C@@H](n2cc(C(N)=O)c(Nc3ccc(F)cc3)n2)[C@H](C#N)C1` (racemic) [Example 5-32, 3-methoxypropyl (3R,4R and 3S,4S)-4-{4-carbamoyl-3-[(4-fluorophenyl)amino]-1H-pyrazol-1-yl}-3-cyanopiperidine-1-carboxylate] reads 12 nM; that for `CC1(COC(=O)N2CC[C@@H](n3cc(C(N)=O)c(Nc4ccc(F)cc4)n3)[C@H](C#N)C2)COC1` (racemic) [Example 5-33, (3-methyloxetan-3-yl)methyl (3R,4R and 3S,4S)-4-{4-carbamoyl-3-[(4-fluorophenyl)amino]-1H-pyrazol-1-yl}-3-cyanopiperidine-1-carboxylate], 28 nM.

In the case of `C#CCCOC(=O)N1CC[C@@H](n2cc(C(N)=O)c(Nc3ccc(F)cc3)n2)[C@H](C#N)C1` (racemic) [Example 5-34, but-3-yn-1-yl (3R,4R and 3S,4S)-4-{4-carbamoyl-3-[(4-fluorophenyl)amino]-1H-pyrazol-1-yl}-3-cyanopiperidine-1-carboxylate], the IC50 came out at 9 nM. `C#CCCOC(=O)N1CC[C@H](n2cc(C(N)=O)c(Nc3ccc(F)cc3)n2)[C@H](C#N)C1` (racemic) [Example 5-40, but-3-yn-1-yl (3R,4S and 3S,4R)-4-{4-carbamoyl-3-[(4-fluorophenyl)amino]-1H-pyrazol-1-yl}-3-cyanopiperidine-1-carboxylate]: the half-maximal inhibitory concentration (IC50) amounted to 209 nM. As to `N#C[C@@H]1CN(C(=O)OCCC2CC2)CC[C@@H]1n1cc(C(N)=O)c(Nc2ccc(F)cc2)n1` (racemic) [Example 5-41, 2-cyclopropylethyl (3R,4S and 3S,4R)-4-{4-carbamoyl-3-[(4-fluorophenyl)amino]-1H-pyrazol-1-yl}-3-cyanopiperidine-1-carboxylate], the IC50 came out at 394 nM.

For the molecule `CC1(COC(=O)N2CC[C@H](n3cc(C(N)=O)c(Nc4ccc(F)cc4)n3)[C@H](C#N)C2)COC1` (racemic) [Example 5-45, (3-methyloxetan-3-yl)methyl (3R,4S and 3S,4R)-4-{4-carbamoyl-3-[(4-fluorophenyl)amino]-1H-pyrazol-1-yl}-3-cyanopiperidine-1-carboxylate], the IC50 amounted to 624 nM.

Take `N#C[C@@H]1CN(C(=O)OCC2CC2)CC[C@@H]1n1cc(C(N)=O)c(Nc2ccc(F)cc2)n1` (racemic) [Example 5-46, cyclopropylmethyl (3R,4S and 3S,4R)-4-{4-carbamoyl-3-[(4-fluorophenyl)amino]-1H-pyrazol-1-yl}-3-cyanopiperidine-1-carboxylate]: the 50% inhibitory concentration (IC50) is 251 nM. With `N#C[C@@H]1CN(C(=O)OCc2ccccc2)CC[C@@H]1n1cc(C(N)=O)c(Nc2ccc(F)cc2)n1` (racemic) [Example 5-52, benzyl (3R,4S and 3S,4R)-4-{4-carbamoyl-3-[(4-fluorophenyl)amino]-1H-pyrazol-1-yl}-3-cyanopiperidine-1-carboxylate], the half-maximal inhibitory concentration (IC50) worked out at 467 nM. Same read-out and setting: as for `CC(C)COC(=O)N1CC[C@H](n2cc(C(N)=O)c(Nc3ccc(F)cc3)n2)[C@H](C#N)C1` (racemic) [Example 5-56, 2-methylpropyl (3R,4S and 3S,4R)-4-{4-carbamoyl-3-[(4-fluorophenyl)amino]-1H-pyrazol-1-yl}-3-cyanopiperidine-1-carboxylate], the figure is 496 nM. The same measure, in the same setting: the result for `N#C[C@@H]1CN(C(=O)OC2CCCCC2)CC[C@@H]1n1cc(C(N)=O)c(Nc2ccc(F)cc2)n1` (racemic) [Example 5-61, cyclohexyl (3R,4S and 3S,4R)-4-{4-carbamoyl-3-[(4-fluorophenyl)amino]-1H-pyrazol-1-yl}-3-cyanopiperidine-1-carboxylate] reads 599 nM; that for `CC1(COC(=O)N2CC[C@H](n3cc(C(N)=O)c(Nc4ccc(F)cc4)n3)[C@H](C#N)C2)CC1` (racemic) [Example 5-62, (1-methylcyclopropyl)methyl (3R,4S and 3S,4R)-4-{4-carbamoyl-3-[(4-fluorophenyl)amino]-1H-pyrazol-1-yl}-3-cyanopiperidine-1-carboxylate], 515 nM.

For `COCCCOC(=O)N1CC[C@H](n2cc(C(N)=O)c(Nc3ccc(F)cc3)n2)[C@H](C#N)C1` (racemic) [Example 5-63, 3-methoxypropyl (3R,4S and 3S,4R)-4-{4-carbamoyl-3-[(4-fluorophenyl)amino]-1H-pyrazol-1-yl}-3-cyanopiperidine-1-carboxylate], the half-inhibitory concentration (IC50) worked out at 727 nM. On the same count and under the same terms, the result for `N#C[C@@H]1CCN(Cc2cc(F)ccn2)C[C@H]1n1cc(C(N)=O)c(Nc2ccc(F)cc2)n1` (racemic) [Example 6-7, 1-{(3S,4R and 3R,4S)-4-cyano-1-[(4-fluoropyridin-2-yl)methyl]piperidin-3-yl}-3-[(4-fluorophenyl)amino]-1H-pyrazole-4-carboxamide] reads 4 nM. The same measure, in the same setting: the result for `N#C[C@@H]1CCN(CC2CCC2)C[C@H]1n1cc(C(N)=O)c(Nc2ccc(F)cc2)n1` (racemic) [Example 6-12, 1-[(3S,4R and 3R,4S)-4-cyano-1-(cyclobutylmethyl)piperidin-3-yl]-3-[(4-fluorophenyl)amino]-1H-pyrazole-4-carboxamide] reads 5 nM. `CCn1ccnc1CN1CC[C@@H](C#N)[C@H](n2cc(C(N)=O)c(Nc3ccc(F)cc3)n2)C1` (racemic) [Example 6-19, 1-{(3S,4R and 3R,4S)-4-cyano-1-[(1-ethyl-1H-imidazol-2-yl)methyl]piperidin-3-yl}-3-[(4-fluorophenyl)amino]-1H-pyrazole-4-carboxamide]: the IC50 turned out to be 2 nM. Take `N#C[C@@H]1CN(Cc2cnccn2)CC[C@H]1n1cc(C(N)=O)c(Nc2ccc(F)cc2)n1` (racemic) [Example 6-23, 1-[(3R,4R and 3S,4S)-3-cyano-1-(pyrazin-2-ylmethyl)piperidin-4-yl]-3-[(4-fluorophenyl)amino]-1H-pyrazole-4-carboxamide]: the IC50 worked out at 7 nM.

Turning to `N#C[C@@H]1CN(Cc2cscn2)CC[C@H]1n1cc(C(N)=O)c(Nc2ccc(F)cc2)n1` (racemic) [Example 6-27, 1-[(3R,4R and 3S,4S)-3-cyano-1-(1,3-thiazol-4-ylmethyl)piperidin-4-yl]-3-[(4-fluorophenyl)amino]-1H-pyrazole-4-carboxamide], the half-inhibitory concentration (IC50) worked out at 5 nM. Turning to `N#C[C@@H]1CN(Cc2ncco2)CC[C@H]1n1cc(C(N)=O)c(Nc2ccc(F)cc2)n1` (racemic) [Example 6-29, 1-[(3R,4R and 3S,4S)-3-cyano-1-(1,3-oxazol-2-ylmethyl)piperidin-4-yl]-3-[(4-fluorophenyl)amino]-1H-pyrazole-4-carboxamide], the half-maximal inhibitory concentration (IC50) was 5 nM.

For `N#C[C@@H]1CCOC[C@H]1n1cc(C(N)=O)c(Nc2ccc([C@@H](O)C(F)(F)F)cc2)n1` (single isomer, unassigned) [Example 9-6, 1-[(3S,4R or 3R,4S)-4-cyanotetrahydro-2H-pyran-3-yl]-3-({4-[(1R or 1S)-2,2,2-trifluoro-1-hydroxyethyl]phenyl}amino)-1H-pyrazole-4-carboxamide], the IC50 stood at 3 nM.

For `N#C[C@H]1CCOC[C@@H]1n1cc(C(N)=O)c(Nc2ccc(Cl)nc2)n1` (single isomer, unassigned) [Example 9-27, 3-[(6-chloropyridin-3-yl)amino]-1-[(3R,4S or 3S,4R)-4-cyanotetrahydro-2H-pyran-3-yl]-1H-pyrazole-4-carboxamide], the IC50 is 31 nM. Turning to `N#C[C@@H]1CCOC[C@H]1n1cc(C(N)=O)c(Nc2ccc(Cl)nc2)n1` (single isomer, unassigned) [Example 9-28, 3-[(6-chloropyridin-3-yl)amino]-1-[(3S,4R or 3R,4S)-4-cyanotetrahydro-2H-pyran-3-yl]-1H-pyrazole-4-carboxamide], the IC50 came out at 0.5 nM. Still for that read-out and setting: the result for `N#C[C@H]1CCOC[C@@H]1n1cc(C(N)=O)c(Nc2ccc(C(F)F)nc2)n1` (single isomer, unassigned) [Example 9-32, 1-[(3R,4S or 3S,4R)-4-cyanotetrahydro-2H-pyran-3-yl]-3-{[6-(difluoromethyl)pyridin-3-yl]amino}-1H-pyrazole-4-carboxamide] reads 38 nM; that for `N#C[C@@H]1CCOC[C@H]1n1cc(C(N)=O)c(Nc2ccc(C(F)F)nc2)n1` (single isomer, unassigned) [Example 9-33, 1-[(3S,4R or 3R,4S)-4-cyanotetrahydro-2H-pyran-3-yl]-3-{[6-(difluoromethyl)pyridin-3-yl]amino}-1H-pyrazole-4-carboxamide], 0.5 nM; that for `CN(C)C(=O)c1ccc(Nc2nn([C@H]3COCC[C@@H]3C#N)cc2C(N)=O)cc1` (single isomer, unassigned) [Example 9-34, 1-[(3R,4S or 3S,4R)-4-cyanotetrahydro-2H-pyran-3-yl]-3-{[4-(dimethylcarbamoyl)phenyl]amino}-1H-pyrazole-4-carboxamide], 0.05 nM.
